Source: patent US11413322B2, “Immunotherapy for angiogenic disease” (International Institute of Cancer Immunology, Inc., priority 2014, dated 2022)

Test system: laser-induced choroid coat angiogenesis
Test: Mouse model of laser-induced choroid coat angiogenesis, WT1 peptide vaccine (Example 1)
Assay type: in vivo, mouse (C57BL/6J)
From the text: Two species of WT1 peptides: WT1126 (Arg Met Phe Pro Asn Ala Pro Tyr Leu (SEQ ID NO: 1)) and WT135 (Ala Pro Val Leu Asp Phe Ala Pro Pro Gly Ala Ser Ala Tyr Gly Ser Leu Gly (SEQ ID NO: 27)), were used as test substances.
Male C57BL/6J mice (provided by CLEA Japan, Inc.) were used. At the beginning of the experiment, the mice were 8 weeks old (body weight: about 20 to 25 g). The mice were free-fed with laboratory chow (manufactured by Oriental Yeast Co., Ltd.) and tap water. Six mice were used for each administration group.
As a WT1 peptide, WT1126 or WT135 was dissolved in sterilized PBS so that the concentration of the solution was 22.7 mg/mL. The resultant was diluted to 0.227 or 2.27 mg/mL with sterilized PBS. The resultant WT1 solution and Montanide ISA51 VG were mixed so that the volume ratio was 1:1.27 to prepare emulsions of 0.1 μg/μL, 1 μg/μL, and 10 μg/μL. Each of the emulsions was intracutaneously administered at 10 μL/body. Administered doses were 1 μg/body, 10 μg/body, and 100 μg/body. Timing of administrations were on 15, 22, 29, and 36 days after photocoagulation.
Specifically, with respect to the mice of administration groups (groups 1 to 4) administered with the test substance (WT1 peptide), the administration was carried out through the following procedure.
(1) Grouping was carried out on the basis of area of fluorescence leakage on 14 days after the photocoagulation.
(3) Abdomen was shaved with hair clippers, and then intracutaneous administration was carried out using a 30 G injection needle. […]
(2) Dilatation of pupils was carried out with Mydrin-P, and then general anesthesia was performed by intramuscular administration at 1 mL/kg of a mixture of Ketalar injection (manufactured by DAIICHI SANKYO COMPANY, LIMITED) and Celactal injection (manufactured by Bayer) (7:1). (3) Fluorescite (Manufactured by Alcon, Inc.) was injected at 0.1 mL/kg via the tail vein, and then fluorescence ocular fundus angiography was carried out using Micron III. (4) An area of fluorescence leakage was calculated using an image analysis software. […]

Question: “Arg Met Phe Pro Asn Ala Pro Tyr Leu (RMFPNAPYL; listed as Homo sapiens) [WT1126, WT1 peptide]” was tested. Which “choroidal neovascular area at 6 weeks after the photocoagulation relative to area at 2 weeks after the photocoagulation” value (100 μg/body intracutaneous on days 15, 22, 29, 36 after photocoagulation, fluorescence ocular fundus angiography, FIG. 3) did it give?
Answer: The value was “about 50%”.

Question: What about the “choroidal neovascular area, change with administration (vs PBS administration group)” value (any applied dose of 1, 10 and 100 μg/body intracutaneous, time course 2 to 6 weeks, FIG. 3, FIG. 4) of the same substance?
Answer: The value was “Decrease in choroidal neovascular area; also recorded: decreased”.

Question: And the “angiogenesis of the ocular fundus at 6 weeks after the photocoagulation compared to PBS administration group” value (intracutaneous, fluorescence ocular fundus angiography, FIG. 2)?
Answer: The value was “significantly suppressed”.

Entries after “also recorded” stand apart in the source; their conditions may differ.
